Patent US8138187B2, “Substituted heteroaryl derivatives” (Gruenenthal GmbH, priority 2006, dated 2012)

Amino acid sequences for entries named in this document (tags omitted). A change or cut given only in a name is not applied to a line headed by its entry.
UniProt P41146: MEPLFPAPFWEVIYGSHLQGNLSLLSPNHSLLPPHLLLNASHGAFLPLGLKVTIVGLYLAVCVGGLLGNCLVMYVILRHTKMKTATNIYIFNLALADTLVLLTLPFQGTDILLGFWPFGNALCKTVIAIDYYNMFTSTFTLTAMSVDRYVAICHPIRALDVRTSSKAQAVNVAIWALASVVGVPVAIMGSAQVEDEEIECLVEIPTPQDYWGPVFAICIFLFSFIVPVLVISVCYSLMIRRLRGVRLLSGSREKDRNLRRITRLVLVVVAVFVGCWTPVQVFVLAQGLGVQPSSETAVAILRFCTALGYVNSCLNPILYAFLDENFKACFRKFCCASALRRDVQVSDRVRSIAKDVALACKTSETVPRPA
UniProt P35372, whole entry, looked up: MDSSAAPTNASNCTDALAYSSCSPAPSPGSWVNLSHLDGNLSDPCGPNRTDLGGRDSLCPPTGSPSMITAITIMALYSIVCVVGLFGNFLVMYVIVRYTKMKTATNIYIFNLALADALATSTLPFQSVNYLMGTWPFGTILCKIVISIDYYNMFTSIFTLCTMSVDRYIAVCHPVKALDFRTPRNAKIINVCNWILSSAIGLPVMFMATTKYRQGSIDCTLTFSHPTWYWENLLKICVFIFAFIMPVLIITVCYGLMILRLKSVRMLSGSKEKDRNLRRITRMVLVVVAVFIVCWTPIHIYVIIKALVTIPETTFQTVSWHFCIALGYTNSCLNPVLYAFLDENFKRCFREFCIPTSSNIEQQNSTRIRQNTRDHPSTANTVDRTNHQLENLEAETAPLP

Key:
ORL1 receptor = ORL1 receptor (Homo sapiens, UniProt P41146); assay: ORL1 receptor binding assay with 3H-nociceptin/orphanin FQ; details: membranes from recombinant CHO-ORL1 cells; for Ki: read-out: Ki [μM] (ORL1); for % inhibition (ORL1) at 1 μM: 1 μM test compound
human μ opiate receptor = human μ opiate receptor (Homo sapiens, UniProt P35372); assay: μ binding, displacement of [3H]-naloxone; details: CHO-K1 membranes expressing human μ opiate receptor; for Ki: read-out: Ki [μM] (μ), Cheng-Prusoff; for % inhibition (μ) at 1 μM: 1 μM test compound
mice = assay: Testing of analgesia in the tail flick test in mice; details: mouse, 100 μg/kg i.v.

| SMILES | Ki (ORL1 receptor) [µM] | Ki (human μ opiate receptor) [µM] | Tail-flick, i.v. (mice) [% MPE at 100 μg/kg] | % inhibition (ORL1) at 1 μM (ORL1 receptor) [%] | % inhibition (μ) at 1 μM (human μ opiate receptor) [%] |
| --- | --- | --- | --- | --- | --- |
| CN(C)C1(c2ccccc2)CCC(c2[nH]c3ccccc3c2CCO)CC1 (stereo not drawn) | 0.0012 | 0.0044 | 99 | – | – |
| CC(=O)NCCc1c(C2=CCC(c3ccccc3)(N(C)C)CC2)[nH]c2ccccc12 (racemic) | – | – | – | 79 | 98 |
| CCCCC1(N(C)C)CC=C(c2[nH]c3ccc(C(F)(F)F)cc3c2C)CC1 (racemic) | – | 0.14 | – | 73 | – |
| CCCCC1(N(C)C)CC=C(c2[nH]c3ccc(F)cc3c2CCN2CCCCC2)CC1 (racemic) | – | – | – | 80 | 98 |
| CCCCC1(N(C)C)CC=C(c2[nH]c3ccc(F)cc3c2CCn2ccnn2)CC1 (racemic) | – | – | – | 52 | 97 |
| CCCCC1(N(C)C)CC=C(c2[nH]c3ccc(F)cc3c2CCn2cnc3ccccc32)CC1 (racemic) | – | – | – | 88 | 100 |
| CCCCC1(N(C)C)CC=C(c2[nH]c3ccccc3c2C)CC1 (racemic) | – | – | – | 96 | 100 |
| CCCCC1(N(C)C)CC=C(c2[nH]c3ccccc3c2C2CC2)CC1 (racemic) | – | – | – | 26 | 50 |
| CCCCC1(N(C)C)CC=C(c2[nH]c3ccccc3c2CCC)CC1 (racemic) | – | 0.53 | – | 48 | – |
| CCCCC1(N(C)C)CC=C(c2[nH]c3ccccc3c2CCCO)CC1 (racemic) | – | – | – | 74 | 98 |
| CCCCC1(N(C)C)CC=C(c2[nH]c3ccccc3c2CCNC(=O)CC(C)(C)C)CC1 (racemic) | – | – | – | 63 | 99 |
| CCCCC1(N(C)C)CC=C(c2[nH]c3ccccc3c2CCc2ccncc2)CC1 (racemic) | – | – | – | 78 | 101 |
| CCCCC1(N(C)C)CC=C(c2[nH]c3ccccc3c2Cc2ccccc2)CC1 (racemic) | – | – | – | 55 | 78 |
| CCCc1c(C2=CCC(Cc3ccccc3)(N(C)C)CC2)[nH]c2ccccc12 (racemic) | – | – | – | 50 | 73 |
| CCCc1c(C2=CCC(c3ccccc3)(N(C)C)CC2)[nH]c2ccccc12 (racemic) | – | – | – | 17 | 37 |
| CN(C)C1(Cc2ccccc2)CC=C(c2[nH]c3ccc(F)cc3c2CCN2CCCCC2)CC1 (racemic) | – | – | – | 31 | 90 |
| CN(C)C1(Cc2ccccc2)CC=C(c2[nH]c3ccc(F)cc3c2CCn2ccnn2)CC1 (racemic) | – | – | – | 84 | 96 |
| CN(C)C1(Cc2ccccc2)CC=C(c2[nH]c3ccc(F)cc3c2CCn2cnc3ccccc32)CC1 (racemic) | – | – | – | 35 | 100 |
| CN(C)C1(Cc2ccccc2)CC=C(c2[nH]c3ccccc3c2CCCO)CC1 (racemic) | – | – | – | 64 | 95 |
| CN(C)C1(Cc2ccccc2)CC=C(c2[nH]c3ccccc3c2CCc2ccncc2)CC1 (racemic) | – | – | – | 16 | 97 |

| SMILES | Ki (ORL1 receptor) [µM] | Ki (human μ opiate receptor) [µM] | Tail-flick, i.v. (mice) [% MPE at 100 μg/kg] | % inhibition (ORL1) at 1 μM (ORL1 receptor) [%] | % inhibition (μ) at 1 μM (human μ opiate receptor) [%] |
| --- | --- | --- | --- | --- | --- |
| CN(C)C1(c2cc3ccccc3s2)CC=C(c2[nH]c3ccccc3c2CCO)CC1 (racemic) | 3 | 0.036 | – | – | – |
| CN(C)C1(c2ccccc2)CC=C(c2[nH]c3cc(Cl)cc(Cl)c3c2CCO)CC1 (racemic) | – | 0.037 | – | 39 | – |
| CN(C)C1(c2ccccc2)CC=C(c2[nH]c3ccc(-c4cccnc4)cc3c2CCO)CC1 (racemic) | – | 0.32 | – | 49 | – |
| CN(C)C1(c2ccccc2)CC=C(c2[nH]c3ccc(F)cc3c2CCN2CCCCC2)CC1 (racemic) | – | – | – | 66 | 83 |
| CN(C)C1(c2ccccc2)CC=C(c2[nH]c3ccc(F)cc3c2CCO)CC1 (racemic) | – | 0.033 | – | 37 | – |
| CN(C)C1(c2ccccc2)CC=C(c2[nH]c3ccc(F)cc3c2CCn2ccnn2)CC1 (racemic) | – | – | – | 52 | 86 |
| CN(C)C1(c2ccccc2)CC=C(c2[nH]c3ccc(F)cc3c2CCn2cnc3ccccc32)CC1 (racemic) | – | – | – | 89 | 95 |
| CN(C)C1(c2ccccc2)CC=C(c2[nH]c3ccccc3c2C2CC2)CC1 (racemic) | – | – | – | 17 | 41 |
| CN(C)C1(c2ccccc2)CC=C(c2[nH]c3ccccc3c2CCCN)CC1 (racemic) | 0.02 | 0.0092 | – | – | – |
| CN(C)C1(c2ccccc2)CC=C(c2[nH]c3ccccc3c2CCCO)CC1 (racemic) | – | 0.024 | – | 66 | – |
| CN(C)C1(c2ccccc2)CC=C(c2[nH]c3ccccc3c2CCN2C(=O)c3ccccc3C2=O)CC1 (racemic) | – | – | – | 36 | 61 |
| CN(C)C1(c2ccccc2)CC=C(c2[nH]c3ccccc3c2CCN2CCCCC2)CC1 (racemic) | – | – | – | 90 | 92 |
| CN(C)C1(c2ccccc2)CC=C(c2[nH]c3ccccc3c2CCc2ccncc2)CC1 (racemic) | – | – | – | 62 | 92 |
| CN(C)C1(c2ccccc2)CC=C(c2[nH]c3ccccc3c2Cc2ccccc2)CC1 (racemic) | – | – | – | 29 | 40 |
| CN(C)C1(c2ccccc2)CC=C(c2cn(CCO)c3ccccc23)CC1 (racemic) | – | 0.81 | – | 20 | – |
| COc1cc2[nH]c(C3=CCC(c4ccccc4)(N(C)C)CC3)c(CCO)c2cc1F (racemic) | – | – | – | 65 | 98 |
| COc1ccc2[nH]c(C3=CCC(c4ccccc4)(N(C)C)CC3)c(C)c2c1 (racemic) | – | – | – | 35 | 58 |
| Cc1c(C2=CCC(Cc3ccccc3)(N(C)C)CC2)[nH]c2ccccc12 (racemic) | – | – | – | 75 | 89 |
| Cc1c(C2=CCC(c3ccccc3)(N(C)C)CC2)[nH]c2ncccc12 (racemic) | – | – | – | 35 | 60 |
| OCCc1c(C2=CCC(c3ccccc3)(N3CCCC3)CC2)[nH]c2ccc(F)cc12 (racemic) | – | – | – | 46 | 98 |
